These are literature values, as cited in patent US5625061A, “Compounds useful in preparing antiproliferative agents and garft inhibitors” (Agouron Pharmaceuticals, Inc., priority 1995, dated 1997).

This data set deals with tumor. The conditions noted are these: F. M. Muggia, New Drugs, 1992; cited from earlier work.

Consider `Nc1nc2c(c(=O)[nH]1)CC(CCc1ccc(C(=O)N[C@@H](CCC(=O)O)C(=O)O)cc1)CN2` (stereo partly shown) [5,10-dideazatetrahydrofolic acid], for which the “antitumor activity (in words)” value was “antitumor activity”.
